# According to patent US8273710B2, “Protein hydrolysate enriched in peptides inhibiting DPP-IV and their use” (Campina Nederland Holding B.V., priority 2004, dated 2012):
# Sequences of proteins named here, by UniProt entry; tags and fusion partners are left off. A change or cut given only in a name is not applied to a line headed by its entry.
# UniProt P22411: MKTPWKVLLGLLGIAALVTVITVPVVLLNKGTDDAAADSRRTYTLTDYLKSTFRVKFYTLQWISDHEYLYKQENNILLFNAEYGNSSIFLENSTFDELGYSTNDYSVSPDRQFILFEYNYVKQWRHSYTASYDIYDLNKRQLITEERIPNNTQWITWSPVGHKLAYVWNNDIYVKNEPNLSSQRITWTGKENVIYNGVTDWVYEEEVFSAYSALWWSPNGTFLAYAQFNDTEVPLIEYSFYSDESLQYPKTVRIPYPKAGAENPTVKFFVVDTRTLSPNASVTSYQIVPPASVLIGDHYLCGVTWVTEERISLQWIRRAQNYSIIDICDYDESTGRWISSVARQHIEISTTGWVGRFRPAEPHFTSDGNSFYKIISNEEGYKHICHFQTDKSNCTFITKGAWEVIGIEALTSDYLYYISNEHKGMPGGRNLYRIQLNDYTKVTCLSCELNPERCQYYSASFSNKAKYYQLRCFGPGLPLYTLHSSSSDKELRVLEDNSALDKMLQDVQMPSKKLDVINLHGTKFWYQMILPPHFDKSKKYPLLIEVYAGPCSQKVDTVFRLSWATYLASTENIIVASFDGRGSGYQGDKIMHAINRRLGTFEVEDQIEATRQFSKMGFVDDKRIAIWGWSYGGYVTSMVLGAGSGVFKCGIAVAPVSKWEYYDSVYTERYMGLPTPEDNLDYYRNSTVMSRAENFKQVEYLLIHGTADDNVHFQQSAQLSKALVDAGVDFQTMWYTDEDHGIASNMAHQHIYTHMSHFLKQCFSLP
# Biological target: DPP-IV (Sus scrofa, UniProt P22411)
# Test: biochemical
# Description: About 40 protein hydrolysates were subjected to on-line liquid chromatography (LC)-biochemical detection (BCD)-mass spectrometry (MS), a method that allowed for separation of crude extract by HPLC, after which the presence of bioactive compounds was detected by means of an on-line biochemical assay. This method for on-line fractionation and characterisation has extensively been described by Van Elswijk et al. (J Chromatography A (2003) 1020:45-58).
# A variety of protein hydrolysates prepared according to example 2 were further investigated for DPP-IV inhibiting activity. Hydrolysed protein samples were analysed for DPP-IV inhibitory activity in a high-resolution screening (HRS) instrument, as discussed in Van Elswijk et al. (supra).
# DPP-IV inhibition was monitored via the substrate conversion based bioassay format as disclosed in example 1. In addition to the DPP-IV inhibitory activity data, chemical information was obtained in real-time by allowing part of the HPLC effluent to be directed towards a mass spectrometer. […] The assay conditions applied ensured maximum enzyme activity by applying substrate saturation.
SMILES,pIC50,RELATIVE POTENCY [%] (signal relative to the highest signal obtained in this test (LPL and IPI))
CC[C@H](C)[C@H](N)C(=O)N1CCC[C@H]1C(=O)N[C@H](C(=O)O)[C@@H](C)CC [IPI],~5.30,
CC(C)C[C@H](NC(=O)[C@@H]1CCCN1C(=O)[C@@H](N)CC(C)C)C(=O)O [LPL],~5.30,100

# pIC50: −log10 of the molar value.
